Results as given in patent US10052306B2 (LUC THERAPEUTICS, INC., priority 2013, dated 2018).

The chains behind the UniProt entries cited, without tags or fusion partners. Residues count along the entry.
UniProt Q13224, 27-1484: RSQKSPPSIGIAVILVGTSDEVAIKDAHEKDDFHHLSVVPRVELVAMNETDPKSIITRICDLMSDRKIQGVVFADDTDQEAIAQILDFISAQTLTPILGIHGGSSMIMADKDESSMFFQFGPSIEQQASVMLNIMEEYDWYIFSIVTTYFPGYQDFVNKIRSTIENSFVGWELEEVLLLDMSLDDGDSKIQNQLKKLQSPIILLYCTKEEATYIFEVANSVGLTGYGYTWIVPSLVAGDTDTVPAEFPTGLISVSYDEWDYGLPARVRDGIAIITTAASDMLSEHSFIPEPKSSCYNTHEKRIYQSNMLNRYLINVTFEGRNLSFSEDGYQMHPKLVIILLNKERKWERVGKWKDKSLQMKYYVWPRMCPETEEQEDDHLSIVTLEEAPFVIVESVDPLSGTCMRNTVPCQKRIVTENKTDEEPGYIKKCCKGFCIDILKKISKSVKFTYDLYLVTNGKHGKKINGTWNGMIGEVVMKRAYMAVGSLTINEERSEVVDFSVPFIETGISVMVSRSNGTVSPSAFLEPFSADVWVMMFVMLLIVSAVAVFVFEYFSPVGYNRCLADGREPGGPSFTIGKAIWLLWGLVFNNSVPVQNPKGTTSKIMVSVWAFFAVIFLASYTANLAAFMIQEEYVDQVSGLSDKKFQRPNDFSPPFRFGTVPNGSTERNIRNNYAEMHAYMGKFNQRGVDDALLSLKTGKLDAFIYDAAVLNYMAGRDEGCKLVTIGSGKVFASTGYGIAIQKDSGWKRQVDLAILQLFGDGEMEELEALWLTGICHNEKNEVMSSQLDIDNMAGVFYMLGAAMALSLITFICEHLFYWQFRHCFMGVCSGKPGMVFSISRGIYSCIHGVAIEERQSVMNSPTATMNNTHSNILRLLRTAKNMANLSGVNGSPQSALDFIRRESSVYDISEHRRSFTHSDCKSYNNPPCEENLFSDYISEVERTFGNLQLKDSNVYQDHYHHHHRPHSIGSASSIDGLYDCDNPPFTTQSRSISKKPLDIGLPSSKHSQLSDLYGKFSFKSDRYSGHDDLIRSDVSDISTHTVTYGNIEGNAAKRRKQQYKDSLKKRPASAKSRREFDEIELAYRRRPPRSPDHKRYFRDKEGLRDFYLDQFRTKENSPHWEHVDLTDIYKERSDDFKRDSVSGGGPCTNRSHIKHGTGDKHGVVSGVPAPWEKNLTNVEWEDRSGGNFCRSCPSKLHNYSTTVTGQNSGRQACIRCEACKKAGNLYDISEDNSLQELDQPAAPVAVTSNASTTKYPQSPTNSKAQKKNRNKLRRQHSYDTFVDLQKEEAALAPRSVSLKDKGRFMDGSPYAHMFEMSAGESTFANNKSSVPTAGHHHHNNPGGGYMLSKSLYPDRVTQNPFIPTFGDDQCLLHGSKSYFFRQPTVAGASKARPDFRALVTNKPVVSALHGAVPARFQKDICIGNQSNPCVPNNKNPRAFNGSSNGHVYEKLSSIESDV

Columns and labels:
NR1/NR2B [1] = target: NR1/NR2B (Homo sapiens (Human), UniProt Q05586+Q13224); assay: Cell assay: FDSS Ca2+ influx inhibition in HEK293 cells expressing NR1/NR2B;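 note: Fluo-8 Ca2+ signal read on Hamamatsu FDSS 6000 after glutamate, glycine and Ca2+ challenge following 10 min compound preincubation, end/baseline fluorescence ratio compared with MK801 control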
NR1/NR2B [2] = target: NR1/NR2B (Homo sapiens (Human), UniProt Q13224); assay: as above; details: read-out: NR2B NAM IC50

`O[C@@]1(c2ccccc2)C[C@H]2CN(c3cccc(C(F)(F)F)n3)C[C@H]2C1` [Example 83, 5-phenyl-2-[6-(trifluoromethyl)pyridin-2-yl]-octahydrocyclopenta[c] pyrrol-5-ol] showed an IC50 (NR1/NR2B [1]) greater than 10 µM and an IC50 (NR1/NR2B [2]) of 10 µM.
